{"source": "patent US4189604A", "about": "“Bestatin” (Zaidan Hojin Biseibutsu Kagaku Kenkyu Kai, priority 1975, dated 1980)"}
{"molecular_target": "T1, aminopeptidase B (Rattus norvegicus, UniProt O09175)", "T1 construct": "aminopeptidase B solution which is prepared by Sephadex 100 chromatography as described by Hopusu et al; from tissue", "T1 sequence (O09175 1-650)": "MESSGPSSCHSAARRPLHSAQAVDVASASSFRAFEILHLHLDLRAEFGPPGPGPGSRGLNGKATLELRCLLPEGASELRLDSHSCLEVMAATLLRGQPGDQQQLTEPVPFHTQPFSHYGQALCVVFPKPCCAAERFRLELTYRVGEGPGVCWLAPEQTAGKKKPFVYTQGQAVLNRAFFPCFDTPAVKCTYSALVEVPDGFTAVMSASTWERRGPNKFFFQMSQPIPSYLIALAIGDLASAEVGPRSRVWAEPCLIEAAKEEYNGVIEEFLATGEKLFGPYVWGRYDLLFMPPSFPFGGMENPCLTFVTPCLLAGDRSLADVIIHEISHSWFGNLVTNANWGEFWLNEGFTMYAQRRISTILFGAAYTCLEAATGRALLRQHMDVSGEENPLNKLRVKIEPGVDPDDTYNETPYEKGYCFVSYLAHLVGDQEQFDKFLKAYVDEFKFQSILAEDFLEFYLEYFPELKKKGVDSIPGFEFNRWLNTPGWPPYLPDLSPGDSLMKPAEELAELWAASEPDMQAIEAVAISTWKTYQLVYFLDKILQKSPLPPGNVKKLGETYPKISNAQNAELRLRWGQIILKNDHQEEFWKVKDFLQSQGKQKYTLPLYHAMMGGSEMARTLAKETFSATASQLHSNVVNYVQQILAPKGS", "assay": "Inhibitory activity against aminopeptidase B", "format": "biochemical", "settings": "pH 7.0, 37° C., 30 minutes; Table 1", "protocol": "(A) Inhibitory activity against aminopeptidase B Testing method: The method described by […] in Archives of Biochemistry and Biophysics 114, 557, (1966) was modfied. To the mixture of 0.3 ml. of 1 mM arginine β-naphthylamide and 1.0 Ml. of 0.1 M Tris hydrochloride buffer (pH 7.0), 0.7 Ml. of distilled water with or without a test material is added and warmed at 37° C. for 3 minutes. The reaction is started by addition of 0.2 ml. of aminopeptidase B solution which is prepared by Sephadex 100 chromatography as described by Hopusu et al. […] Fifteen minutes at room temperature thereafter, absorbance (a) at 530 nm is measured by spectrophotometer. As the control, by similar means the absorbance (b) after the reaction in the absence of a sample is measured. The inhibition percent is calculated as follows: (b-a)/b×100.", "units": {"ID50": "µg/mL"}}
{"compound": "CC(C)[C@H](NC(=O)[C@@H](O)[C@H](N)Cc1ccccc1)C(=O)O", "note": "[No. 6, (2S,3R)-3-amino-2-hydroxy-4-phenylbutanoyl-(S)-valine]", "ID50": 0.55}
{"compound": "CCC[C@H](NC(=O)[C@@H](O)[C@H](N)Cc1ccccc1)C(=O)O", "note": "[No. 10, (2S,3R)-3-amino-2-hydroxy-4-phenylbutanoyl-(S)-norvaline]", "ID50": 0.17}
{"compound": "CC(C)C[C@H](NC(=O)C(O)C(N)Cc1ccc(Cl)cc1)C(=O)O", "note": "(stereo partly drawn) [No. 19, (2RS,3RS)-3-amino-2-hydroxy-4-p-chlorophenylbutanoyl-(S)-leucine]", "ID50": 0.07}
{"compound": "CC(C)C[C@H](NC(=O)C(O)C(N)Cc1ccccc1Cl)C(=O)O", "note": "(stereo partly drawn) [No. 20, (2RS,3RS)-3-amino-2-hydroxy-4-o-chlorophenylbutanoyl-(S)-leucine]", "ID50": 0.48}
